ChEMBL document CHEMBL1926507, “Discovery of a new class of bicyclic substituted hydroxyphenylmethanones as 17β-hydroxysteroid dehydrogenase type 2 (17β-HSD2) inhibitors for the treatment of osteoporosis” (Eur J Med Chem, 2012)

Columns and labels:
[1] = target: T1, 17-beta-hydroxysteroid dehydrogenase type 2 (Homo sapiens) (UniProt P37059); test: Inhibition of human microsomal 17beta-HSD2 using [2,4,6,7-3H]E2 as substrate at 1 uM after 20 mins by radioflow detector
T1 sequence (whole entry): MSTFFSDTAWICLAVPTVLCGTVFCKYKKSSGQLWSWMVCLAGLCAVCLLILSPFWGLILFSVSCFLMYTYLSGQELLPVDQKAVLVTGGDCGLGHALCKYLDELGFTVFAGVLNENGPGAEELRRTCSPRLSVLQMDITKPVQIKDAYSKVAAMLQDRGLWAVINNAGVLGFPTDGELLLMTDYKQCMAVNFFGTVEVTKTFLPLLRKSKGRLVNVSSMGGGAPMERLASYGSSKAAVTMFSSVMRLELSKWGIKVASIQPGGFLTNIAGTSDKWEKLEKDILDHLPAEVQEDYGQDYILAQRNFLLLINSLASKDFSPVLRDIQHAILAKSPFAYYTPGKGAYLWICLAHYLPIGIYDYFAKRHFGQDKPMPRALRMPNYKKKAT
Summary of the method: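 Microsomal fraction from human placenta incubated at 37 °C for 20 min with NAD+ (1500 µM), inhibitor and unlabeled plus [2,4,6,7-3H]-E2 (final 500 nM). Phosphate buffer 50 mM with 20% glycerol and 1 mM EDTA. Inhibitor stocks made in DMSO. Reaction stopped with HgCl2 and extracted with ether. E2 and E1 separated by HPLC with radioflow detection. Values are the mean of three determinations.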

[2] = target: T2, 17-beta-hydroxysteroid dehydrogenase type 1 (Homo sapiens) (UniProt P14061); test: Inhibition of human cytosolic 17beta-HSD1 using [2,4,6,7-3H]E1 as substrate at 1 uM after 10 mins by radioflow detector
T2 sequence (whole entry): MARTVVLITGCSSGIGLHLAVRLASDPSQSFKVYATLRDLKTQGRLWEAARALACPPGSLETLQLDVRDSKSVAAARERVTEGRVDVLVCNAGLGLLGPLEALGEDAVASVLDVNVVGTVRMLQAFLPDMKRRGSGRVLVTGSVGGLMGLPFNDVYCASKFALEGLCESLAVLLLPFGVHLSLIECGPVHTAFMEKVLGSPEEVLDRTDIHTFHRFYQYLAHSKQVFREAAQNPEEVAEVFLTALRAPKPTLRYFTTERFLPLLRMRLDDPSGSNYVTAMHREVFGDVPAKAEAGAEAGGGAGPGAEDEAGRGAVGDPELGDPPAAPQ
Summary of the method: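 Cytosolic fraction from human placenta incubated with NADH (500 µM), test compound and unlabeled plus [2,4,6,7-3H]-E1 (final 500 nM) for 10 min at 37 °C. Phosphate buffer 50 mM with 20% glycerol and 1 mM EDTA. Inhibitor stocks made in DMSO. Reaction stopped with HgCl2 and extracted with ether. Substrate and product separated by HPLC with radioflow detection. Values are the mean of three determinations.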

Q: What does the source list for `Cc1cc(-c2ccc(C(=O)c3cccc(O)c3)s2)ccc1O`?
A: inhibition [1]: 75%; inhibition [2]: 94%
